Measurements reported in US8754113B2, “Oxadiazole derivative having endothelial lipase inhibitory activity” (Shionogi & Co., Ltd., priority 2009, dated 2014).

Sequences of proteins named here, by UniProt entry; tags and fusion partners are left off. Residues count along the entry.
UniProt Q9Y5X9, 21-500 limits assumed: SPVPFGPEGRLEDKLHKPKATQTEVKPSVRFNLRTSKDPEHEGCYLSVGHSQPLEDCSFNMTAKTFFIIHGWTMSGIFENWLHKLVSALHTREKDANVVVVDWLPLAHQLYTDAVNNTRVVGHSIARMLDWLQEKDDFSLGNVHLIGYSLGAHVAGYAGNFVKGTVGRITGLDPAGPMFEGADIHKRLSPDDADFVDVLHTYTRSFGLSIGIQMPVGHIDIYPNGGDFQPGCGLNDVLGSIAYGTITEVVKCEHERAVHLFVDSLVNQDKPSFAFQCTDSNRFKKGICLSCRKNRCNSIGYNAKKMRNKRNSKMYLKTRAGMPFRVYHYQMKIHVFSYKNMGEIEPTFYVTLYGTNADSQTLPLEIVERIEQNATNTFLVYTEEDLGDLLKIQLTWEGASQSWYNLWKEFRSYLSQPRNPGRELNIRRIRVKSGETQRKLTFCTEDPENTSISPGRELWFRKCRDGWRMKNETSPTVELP

Molecular target: human endothelial lipase (EL) (Homo sapiens (Human), UniProt Q9Y5X9)
Test: Human endothelial lipase (EL) inhibitory activity using human HDL (NEFA release)
Conditions: read-out: IC50 (50% inhibitory concentration), EL inhibitory activity; human HDL 2 mg/ml substrate, 4-hour reaction at 37° C., NEFA readout

| Structure (SMILES) | IC50 |
| --- | --- |
| COc1cc(-c2ccccc2)cc2sc(Cc3nnc(CC(=O)NC4(C#N)CC4)o3)nc12 | 0.008 µM |
| N#CC1(NC(=O)Cc2nnc(Cc3nc4ccc(-c5ccccc5)c(F)c4s3)o2)CC1 | 0.013 µM |
